# Reference: patent US20060281897A1, “Potentialization of the activation of high molecular weight prodrugs” (priority 2003, published 2006)
# Experiments:
# [1] = system: peptidases secreted by LS-174T tumor cells; test: Reactivation (hydrolysis) of prodrugs in medium conditioned by LS-174T tumor cells, HPLC; conditions: LS-174T conditioned medium, compound 20 μM, 6 hours, 37° C.
# [2] = at 6 hours, whole human blood, 37° C.
# Method: The samples were incubated at 37° C. An extraction (for extraction method with acetonitrile, see Item 7.3 below) of each product was carried out in triplicate at time 0 and after 1, 2, 4 and 6 hours of incubation.
# 10 μl of internal standard (prolyl-daunorubicin) and […] 150 μl of acetonitrile were added into tubes containing 50 μl of the sample to be extracted. The tubes were stirred and centrifuged for 10 minutes to 13000 g. The supernatant was diluted 4 times in a formate buffer, pH 4, centrifuged, then analyzed by HPLC (see Item 7.3 below).
# At different time points, the concentrations of the conjugates and possible metabolites formed were evaluated by HPLC. FIG. 7 illustrates the variations of the concentration of products based on the incubation time.
# [3] = 24-hour incubation at 37° C. in culture medium containing 10% fetal calf serum, 20 μM
# [4] = system: peptidases secreted by MCF-7/6 tumor cells; test: Reactivation (hydrolysis) of prodrugs in medium conditioned by MCF-7/6 tumor cells, HPLC; conditions: MCF-7/6 conditioned medium, compound 20 μM, 6 hours, 37° C.
# MCF-7/6 cells = test: Cytotoxicity test (WST-1 cell viability); conditions: read-out: IC50 (50% inhibiting concentration), 48 hours incubation + 24 hours drug-free post-incubation
structure (smiles),measurement,setting,value
"COc1cccc2c1C(=O)c1c(O)c3c(c(O)c1C2=O)C[C@@](O)(C(=O)CO)C[C@@H]3O[C@H]1C[C@H](NC(=O)[C@H](CC(C)C)NC(=O)[C@H](C)NC(=O)[C@H](CC(C)C)NC(=O)CCN)[C@H](O)[C@H](C)O1 [beta-ALAL-Dox, beta-alanyl-leucyl-alanyl-leucyl-doxorubicin, reference compound]",DOX concentration reached,[1],0.22 µM
same,L-DOX concentration reached,[1],5.26 µM
same,hydrolysis: Dox formed,[2],8%
same,hydrolysis: L-Dox (Leu-Dox) formed,[2],10%
same,stability,[3],stable
same,DOX concentration reached,[4],1.45 µM
same,L-DOX concentration reached,[4],8.14 µM
same,pIC50,MCF-7/6 cells,3.80

# pIC50: −log10 of the molar value.
